Experimental data taken from ChEMBL document CHEMBL1133186, “A new class of HIV-1 integrase inhibitors: the 3,3,3', 3'-tetramethyl-1,1'-spirobi(indan)-5,5',6,6'-tetrol family” (J Med Chem, 2000).
Activity calls are given as the source filed them. The rule behind the calls is not given here.

How the values were obtained:
[1] = test system: Integrase (Human immunodeficiency virus 1); test: Compound was tested in vitro against strand -transfer (ST) activity in the presence of Mg2+ as the cationic cofactor at a concentration of 200 uM; NA is Not Active.
[2] = test system: Integrase (Human immunodeficiency virus 1); test: Tested in vitro against strand -transfer (ST) activity in the presence of Mg2+ as the cationic cofactor

In the case of `CC1(C)CC2(CC(C)(C)c3ccc(O)cc32)c2cc(O)ccc21`, the NA [1] is reported as “inactive”.

In the case of `CC1(C)CC2(CC(C)(C)c3ccc(O)c(NC(N)=O)c32)c2cc(O)c(NC(N)=O)cc21` (centres undefined), the NA [1] is reported as “inactive”.

`CC1(C)CC2(CC(C)(C)c3cc(OS(=O)(=O)O)c(OS(=O)(=O)O)cc32)c2cc(OS(=O)(=O)O)c(OS(=O)(=O)O)cc21` was tested, and the inhibition [2] was “inactive”.

For `CC1(C)CC2(CC(C)(C)c3cc(O)c(O)cc32)c2cc(O)c(O)cc21`, the inhibition [2] was “inactive”.
